Literature values as cited in patent publication EP1134585B1, “Biosensor and method for the monitoring of herbicides” (CONSIGLIO NAZIONALE DELLE RICERCHE, priority 2000, dated 2001).
Only a part of the results on these compounds is given; other tests are left out.

Test system: D1 protein Ser264→Gly
Settings: Amaranthus retroflexus; cited from earlier work

Q: For `O=[N+]([O-])c1cc([N+](=O)[O-])c(O)c([N+](=O)[O-])c1`, which “Supersensitivity R/S” value is on record?
A: The value was “Picric acid 0,3”.
